tested on: formalin-induced ocular pain (blinking); test: formalin-induced model of ocular pain in the rat (inhibition of blinking after topical ocular dosing); format: in vivo; conditions: 0.1% w/v, 20 μL topical ocular, 1-30 minutes before 5 μg formalin

| Structure (SMILES) | % Inhibition (of blink count in first minute vs vehicle) [%] |
| --- | --- |
| CN(C(=O)Cc1ccc(Cl)c(Cl)c1)[C@@H]1CCCC[C@H]1N1CCCC1 (relative stereo) | 64 |
| CN(C(=O)Cc1ccccc1)[C@H]1CC[C@@]2(CCCO2)C[C@@H]1N1CCCC1 | 63 |
| CN(C(=O)Cc1ccc(Cl)c(Cl)c1)[C@H]1CC[C@@]2(CCCO2)C[C@@H]1N1CCCC1 | 68 |

From patent publication US6191126A, “Topical use of κ opioid agonists to treat ocular pain” (Alcon Laboratories, Inc., priority 1999, dated 2001)
